System: DosRS regulon
Assay: RNA-seq transcriptional profiling under microaerophilic conditions, WT strain
Conditions: 20 μM

Row | SMILES | genes repressed that are also downregulated in the dosRS KO
1 | C[C@@H]1CC[C@H]2[C@@H](C)C(=O)O[C@@H]3O[C@@]4(C)CC[C@@H]1[C@]32OO4 [ART, artemisinin] | repressed the expression of half of the genes
2 | c1cc([C@H]2CC[C@]3(CC2)OO[C@]2(O3)C3CC4CC(C3)CC2C4)ccc1OCCN1CCOCC1 [OZ439, artefenomel] | inhibiting five common genes
